For one molecule, IC50 results are on record in patent US20120190707A1, “SELECTIVE INHIBITORS OF AKT AND METHODS OF USING SAME” (priority 2008, published 2012).

The chains behind the UniProt entries cited, without tags or fusion partners. Where a name states a change or a piece, a line headed by the entry shows the natural chain unless it says otherwise.
UniProt P31749: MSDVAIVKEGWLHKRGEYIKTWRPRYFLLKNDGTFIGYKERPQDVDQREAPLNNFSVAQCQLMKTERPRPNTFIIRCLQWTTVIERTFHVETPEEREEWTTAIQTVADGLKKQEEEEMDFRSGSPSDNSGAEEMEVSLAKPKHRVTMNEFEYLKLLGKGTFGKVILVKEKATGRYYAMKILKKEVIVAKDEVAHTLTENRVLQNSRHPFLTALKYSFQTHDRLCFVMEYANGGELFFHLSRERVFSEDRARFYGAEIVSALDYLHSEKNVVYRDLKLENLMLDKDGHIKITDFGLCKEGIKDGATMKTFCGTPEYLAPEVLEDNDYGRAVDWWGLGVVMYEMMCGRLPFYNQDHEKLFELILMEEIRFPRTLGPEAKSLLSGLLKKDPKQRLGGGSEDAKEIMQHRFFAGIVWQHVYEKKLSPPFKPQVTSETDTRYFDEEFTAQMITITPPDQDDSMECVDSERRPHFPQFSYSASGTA

pIC50: −log10 of the molar value.

This assay deals with Akt1 (Homo sapiens, UniProt P31749). As to the kind of experiment: Akt1 inhibition, Z'-LYTE kit fluorescent-enzymatic assay. The class given is biochemical. As to conditions: Table 2, derivatives of Compound 1. As to the method: Here the top 4000 compounds out of 50000 docked compounds were selected using FlexX and Drugscore (BioSolvIT). The top 4000 docked structures were further evaluated and ranked according to Goldscore and Chemscore functions (CSCORE). A list of common 200 compounds was then selected among ranked top 700 compounds according to both scoring functions (FIG. 1B). […] The remaining 100 compounds were experimentally tested up to 30 μM against Akt1. The inhibitory activity was evaluated for the selected compounds by using Z'-LYTE™ kit assay provided by Invitrogen Corporation (19). […] Corning® 384-well low volume plates (20 μl) were used. The fluorescent-enzymatic assay has been performed following the protocol provided by Invitrogen Corporation, using a fluorescent plate reader (Victor2, Perkin-Elmer). […] C) Lineweaver-Burk Km and Km(app) evaluation for Akt1. Each measurement was performed in triplicate. […] The Ki and the Km(app) were calculated at fixed inhibitor concentrations, as reported in the text. All constant values were definitely evaluated by fitting the data to the Lineweaver-Burk plot; D) Akt1 inhibition assay using GSK-3 as a substrate. Comparison of compounds 1 and 2 (Table 1) with H89 at 10 μM. […]
For these purposes, we initially determined the Km and the Vmax of the enzymatic reaction involving the peptide provided by the Z'-LYTE™ kit assay and Akt1 by varying the concentration of ATP. […]

As to `CC1=C(C#N)c2nc(N)c(C#N)c(C)c2C1=Cc1ccc(-c2ccc(C(=O)O)cc2)o1` [Compound 4], the negative-log IC50 (pIC50) (in general, the negative decadic logarithm of the IC50, by convention in mol/L) is 3.90.
